# Bioassay records from PubChem.
# Most compounds without a hit are left out; they make up all but 2.1% or so of the library.
# NR1D1 modulator: modulators of Rev-erb alpha DNA binding, primary screen, biochemical, FITC-DNA, fluorescence polarization, uHTS; 370,000 compounds, 0.79% hits; activity, % at 10 µM; Rev-erbα–FITC-DNA binding, 90 min; Nuclear receptor subfamily 1 group D member 1 (Homo sapiens), P20393;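 active = activity above about 14%, limit read from the data; passing the limit was not always enough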
# ERp5 inh: inhibitors of ERp5-driven insulin aggregation, primary screen, biochemical, turbidity, absorbance 650 nm, single point; Protein disulfide-isomerase A6 (Homo sapiens), Q15084; 90 min; inhibition, % at 9.99 µM; 350,000 compounds, 0.05% hits;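 active = mean replicate inhibition above about 25%, with every replicate also reaching it, limit read from the data, passing the limit was not always enough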
# PDI turbidity: inhibitors of human PDI, primary screen, biochemical, turbidity, single point, plate reader. PDI insulin aggregation turbidity, A650, 90 min. 350,000 compounds, 0.052% hits. inhibition, % at 10 µM;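 active = mean inhibition across replicates of 30% or more, whatever share of single replicates reach that level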
# UUG fidelity: alters start codon recognition fidelity in yeast. S. cerevisiae UUG-firefly luciferase reporter, luminescence/redox ratio. AID 602363. activity score, % at 18.7 µM. hit rate 0.13% among 350,000;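 active = replicate mean at a twofold rise or more, about +100% in these data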;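 note: firefly luciferase made from a UUG start codon reports start codon fidelity; reporter light over untreated wells divided by growth signal over untreated wells; some hits fall short of that in this replicate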
# SMARCA2 act: SMARCA2 (BRM) function activators, primary screen, cell-based, luminescence, high throughput | 370,000 compounds, 1% hits | MG213 cells, MMTV-luciferase reporter, dexamethasone, overnight | activation, % at 9.1 µM; in the data active = activation above about 7.8%
# INS-1E GSIS act: GLuc luminescence reporter in INS-1E cells, primary screen for activators of glucose-dependent secretion of insulin; INS-1E GLuc reporter insulin secretion, 2-3 h; 370,000 compounds, 0.61% hits; activation, % at 16.6 µM; AID 743287, 2014;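 active = lowest replicate activation of at least 40%, so every replicate reaches that level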
# SMARCA2 conf: SMARCA2 (BRM) function activators, confirmation, cell-based, luminescence, triplicate | activation, % at 9.1 µM | MG213 cells, MMTV-luciferase with dexamethasone, overnight; MG213 cells expressing E1A, Rb sequestered; DMSO wells 0%, reference activator 100% | AID 652260, 2013 | 3,500 compounds, 30% hits | shares compounds with SMARCA2 act;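 active = activation above its plate's cutoff, the mean activation of tested wells plus 3 SD, cut at about 7.9% in these data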
# GAL4-VP16 Luc: GAL4-VP16 luciferase reporter activation, counter-screen for SMARCA2 (BRM) activator project, cell-based, pG5luc, luminescence, high throughput. activation, % at 9.1 µM. 3,500 compounds, 41% hits. HEK293 GAL4-VP16 pG5luc reporter; scaled: DMSO wells 0%, SAHA wells 100%. shares compounds with SMARCA2 act. AID 686939, 2013;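 active = activation above the solvent-only control well mean plus 3 SD, averaged across control plates, cut at about 5.2% in these data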
# A number is an active result; – = inactive; · = not tested or not shown.
SMILES,NR1D1 modulator,ERp5 inh,PDI turbidity,UUG fidelity,SMARCA2 act,INS-1E GSIS act,SMARCA2 conf,GAL4-VP16 Luc
Cc1cc(C)c(S(=O)(=O)c2cccc(Cl)c2)c(=O)[nH]1,–,–,–,–,11,–,–,–
CN(C)C(=S)NC(=S)Nc1ccc2ccccc2c1,–,–,–,·,17,–,–,34
CC1(NC(=S)Nc2ccc3ccccc3c2)CCS(=O)(=O)C1 (stereo not drawn),–,–,–,–,–,–,·,·
CCN(CC)CC(=O)Nc1cccc2c1C(=O)c1ccccc1C2=O,–,·,–,–,–,–,·,·
O=C1c2ccccc2C(=O)c2c(NCCCN(CCO)CCO)cccc21,–,–,–,·,15,–,40,–
CC(CN1C(C)CCCC1C)OC(=O)c1ccccc1Br (stereo not drawn),–,–,–,–,8.4,–,–,–
C/C=C/c1ccc([C@@H]2[C@@H](CO)N3C(=O)CN(Cc4ccccc4)C[C@@H]23)cc1,·,–,·,·,·,–,·,·
O=C(NC1CCCC1)C(c1ccc(F)cc1)N1CCC(O)(c2ccc(Cl)cc2)CC1 (stereo not drawn),–,–,·,·,13,–,–,–
O=C(NC1CCCC1)C(c1ccc(Cl)cc1)N1CCOCC1 (stereo not drawn),–,–,–,–,–,–,·,·
COc1ccc(C(=O)c2sc(Nc3ccccc3F)nc2N)cc1,–,–,–,–,16,–,11,12
Nc1nc(Nc2ccccc2)sc1C(=O)c1ccccc1,–,–,–,–,11,–,12,8.1
C[C@@H]1CN([C@@H](C)CO)C(=O)c2cc(NC(=O)Cc3cn(C)c4ccccc34)ccc2O[C@@H]1CN(C)S(C)(=O)=O,·,–,·,–,·,–,·,·
O=C(C[C@H]1CC[C@H]2[C@@H](COC[C@@H](O)CN2Cc2nccs2)O1)NCc1ccc(Oc2ccccc2)cc1,·,–,·,·,·,–,·,·
O=C(Nc1ccc2nc3n(c(=O)c2c1)CCCCC3)c1ccccn1,–,–,–,–,8.2,·,–,10
O=C(Nc1ccc2nc3n(c(=O)c2c1)CCCC3)c1ccccc1F,–,–,–,–,–,–,·,·
CCOc1ccc(N=C(C)C2=C(O)c3ccccc3C2=O)cc1,–,–,–,·,19,·,8.5,12
COc1ccc(N=C(C)C2=C(O)c3ccccc3C2=O)cc1,–,·,–,–,–,–,·,·
COC(=O)c1ccc(-c2ccc(/C=N/N3C(=O)C4C5C=CC(C6CC56)C4C3=O)o2)cc1 (stereo not drawn),–,·,–,·,9.0,–,–,5.9
O=C1C2C3C=CC(C4CC34)C2C(=O)N1/N=C/c1ccc([N+](=O)[O-])o1 (stereo not drawn),–,–,–,·,9.3,–,10,–
O=[N+]([O-])c1ccc(/C=N/N=C/c2ccc([N+](=O)[O-])o2)o1,–,–,–,·,19,–,–,–
O=C(N[C@@H]1CC[C@H](CCNS(=O)(=O)c2ccccc2)O[C@H]1CO)c1cccc(F)c1,·,–,·,–,·,–,·,·
Cc1ccc(S(=O)(=O)N(C)C[C@H]2Oc3ccc(NC(=O)CCC(F)(F)F)cc3CC(=O)N([C@H](C)CO)C[C@H]2C)cc1,·,–,·,–,·,–,·,·
O=C(N[C@@H]1CC[C@@H](CCNC(=O)C2CCCC2)O[C@@H]1CO)c1ccncc1,·,–,·,–,·,–,·,·
C[C@@H]1CCCCO[C@@H](CN(C)C(=O)Nc2ccc(F)cc2)[C@@H](C)CN([C@@H](C)CO)C(=O)c2cc(NC(=O)NC3CCCCC3)ccc2O1,·,·,·,·,·,–,·,·
O=C(c1ccc2c(c1)OCO2)N1C[C@@H]2[C@H](c3ccccc31)[C@@H](CO)N2Cc1ccc2c(c1)OCO2,·,–,·,–,·,–,·,·
SMILES,NR1D1 modulator,ERp5 inh,PDI turbidity,UUG fidelity,SMARCA2 act,INS-1E GSIS act,SMARCA2 conf,GAL4-VP16 Luc
O=C(Nc1ccc2c(c1)OCCO2)C(=S)NCc1ccccc1,–,–,–,·,9.7,–,–,–
O=C(Cn1cnc2ccccc2c1=O)Nc1ccc2c(c1)OCCO2,–,·,–,–,8.0,·,–,12
O=C(CCCc1ccccc1)Nc1ccc2c(c1)OCCO2,–,–,–,·,9.3,–,–,8.8
O=C(Cn1cnc2ccccc2c1=O)NCCC(=O)Nc1ccc2c(c1)OCCO2,–,·,–,–,–,·,·,·
C[C@@H]1CN([C@@H](C)CO)C(=O)c2cc(C3=CCCC3)cnc2O[C@H]1CN(C)C(=O)c1ccc(F)cc1,·,–,·,–,·,–,·,·
CCCNC(=O)N1C[C@@H]2[C@H](c3ccccc31)[C@H](CO)N2Cc1ccc(F)cc1,·,–,·,–,·,–,·,·
C[C@H]1C/C=C\C[C@H](c2ccc3c(c2)OCO3)NC(=O)[C@H](c2ccccc2)CC(=O)N1,·,·,·,·,·,–,·,·
CNc1cncc(-c2ccc(O)cc2)n1,–,–,–,–,–,–,·,·
CNc1cncc(-c2ccc(F)cc2F)n1,–,–,–,–,10,–,–,–
COC(=O)/C(C#N)=C1/C=Cc2ccccc2N1,–,–,–,–,8.9,–,–,8.3
COc1ccc(C2=Nc3ccccc3N(C(=O)Cc3cc(OC)cc(OC)c3)C2C(=O)NC(C)C)cc1 (stereo not drawn),–,–,·,·,–,–,·,·
COc1ccc(C2=Nc3ccccc3N(C(=O)c3ccncc3)C2C(=O)NC(C)C)cc1 (stereo not drawn),–,–,·,·,9.7,–,–,–
C[C@@H]1CN([C@H](C)CO)C(=O)c2cc(NC(=O)Cc3ccccc3)ccc2O[C@@H](C)CCCCO[C@H]1CN(C)Cc1ccccc1,·,–,·,–,·,–,·,·
CCNC(=O)NC(=O)C(C)Sc1nc2ccccc2c(=O)n1-c1cccnc1 (stereo not drawn),–,–,–,–,–,–,·,·
CCNC(=O)NC(=O)C(C)Sc1nc2cc(C(=O)OC)ccc2c(=O)n1-c1ccccc1 (stereo not drawn),–,·,–,–,9.4,–,–,–
COCCNC(=O)CN1CCCCCC1,·,–,–,–,8.3,–,–,–
Cc1ccc(C(=O)NCCNC(=O)CN2CCCC2)cc1,–,·,–,·,–,·,·,·
CC1(CCCN2C(=O)c3ccccc3C2=O)OCCO1,–,–,–,–,10,·,–,–
COc1ccc(C2N=C(c3ccccc3)NO2)cc1OC (stereo not drawn),–,–,–,–,8.6,–,14,9.6
